Results published in PubChem BioAssay AID588519 (ICCB-Longwood Screening Facility, Harvard Medical School, 2011).
The list shows a part of the results, in another mix than the full data. Active and inactive are the calls of the source. Cut-off read from the data, not from the text of the source: active = % elongation below about 90%; inactive = the rest, inconclusive results apart.

biological target: Genome polyprotein (Poliovirus type 1 (strain Mahoney)) (UniProt P03300); assay: inhibitors of poliovirus polymerase RNA elongation – biochemical, fluorescence polarization, total intensity, primary screen (AID 588519); conditions: hits give low values, compound at 16.7 µg/mL

Row | Structure (SMILES) | % elongation
1 | CN(CCCl)CCCl | inactive: 102%
